scFv variants of Ab-95 (light chain) against a SARS-CoV-2 spike peptide

From the AlphaSeq antibody data of Engelhart et al. 2022 (doi:10.1038/s41597-022-01779-4), copy in the FLAb collection.

Target: peptide PDVDLGDISGINAS, taken from heptad repeat 2 (HR2) of SARS-CoV-2 spike.

Ab-95 is the parent antibody, in scFv form: VH, then a (GGGGS)3 linker, then VL. The heavy chain is unchanged in all variants.
VH: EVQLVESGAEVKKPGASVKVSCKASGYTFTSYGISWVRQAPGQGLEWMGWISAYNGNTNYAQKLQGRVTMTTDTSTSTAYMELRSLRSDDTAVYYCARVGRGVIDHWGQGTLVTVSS
VL: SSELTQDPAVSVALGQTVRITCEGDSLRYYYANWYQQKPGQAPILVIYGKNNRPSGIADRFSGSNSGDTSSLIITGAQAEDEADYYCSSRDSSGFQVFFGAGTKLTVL

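The starting antibody came from a phage panning campaign against this peptide. Library AAYL52 holds single substitutions and randomly drawn double and triple substitutions in the CDRs. The scFvs were displayed on barcoded MATa yeast, the peptide on MATalpha yeast. After mating in shaken culture at 30 °C for 16 h, diploids were selected and their barcode pairs sequenced. A regression on co-assayed BCL2-family reference pairs converts the normalised counts of each replicate to an apparent Kd. Each pool was mated in three replicate cultures.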

Positions count from residue 1 of the parent VL; G24R puts R in place of G. The read-out is the apparent dissociation constant on a log10 scale (nM): the lower, the stronger. The mean shown is taken over the replicates in which the pair was detected. "nd" marks a missing value. The strain was present, yet no cells mated with the target were sequenced in that replicate, which points to weak or no binding. Empty control strains, which show no peptide, gave a signal in 28% of pairings with library AAYL52; the median was 3.91 and 95% of these signals were weaker than 2.90. No background was subtracted. For each scFv, signals with the empty controls are counted beside the result.

The variant G24R Y31I S55H showed 4.31, nd, nd (controls 5 of 9).
The variant D25F G49I R90I showed 4.74, nd, nd (controls 2 of 9).
The variant S26V P54Q S89E showed nd, nd, 4.13 (controls 0 of 9).
The variant L27W R28N D91I showed nd, 3.99, nd (controls 4 of 9).
The variant E23I S88Y Q96D showed 3.82, 3.06, 2.40 (mean 3.09; controls 5 of 9).
The variant S26C L27D G94D showed 4.22, 5.28, 3.93 (mean 4.48; controls 2 of 9).
The variant G24M S26N Y30Q showed 1.43, 1.17, 1.06 (mean 1.22; controls 6 of 9).
The variant L27D R53M D91Q showed 5.51, 5.07, 4.58 (mean 5.06; controls 3 of 9).
The variant N52P R90V F95C showed 3.82, 4.99, 4.50 (mean 4.44; controls 1 of 9).
The variant R53D S92I F98Y showed nd, nd, nd (controls 1 of 9).
The variant R28I S92V G94L showed nd, nd, 4.13 (controls 2 of 9).
The variant G94T Q96V showed 2.83, 2.69, 2.46 (mean 2.66; controls 2 of 9).
The variant E23N L27Q S89N showed 3.33, nd, nd (controls 2 of 9).
The variant Y30E N51R F95A showed 2.94, 3.30, 2.66 (mean 2.97; controls 6 of 9).
The variant Y30G Y31W S92Q showed 1.00, 0.90, 0.40 (mean 0.77; controls 7 of 9).
The variant D25L S55K showed 3.30, 2.86, 3.02 (mean 3.06; controls 4 of 9).
The variant E23A A32W showed nd, 3.64, nd (controls 4 of 9).
The variant N33M S88R S89P showed nd, nd, nd (controls 2 of 9).
The variant A32S G49C S89C showed nd, 5.81, nd (controls 2 of 9).
The variant Y30M N33W showed 3.76, 3.33, 3.44 (mean 3.51; controls 5 of 9).
The variant A32K P54D F98E showed 3.28, 4.07, 4.33 (mean 3.89; controls 1 of 9).
The variant D91H showed 2.51, nd, 1.87 (mean 2.19; controls 1 of 9).
The variant D25C S26K G49L showed nd, 4.62, 4.23 (mean 4.43; controls 2 of 9).
The variant G24S D25H Y31W showed 3.50, nd, 3.71 (mean 3.60; controls 2 of 9).
The variant R53C S89Y showed nd, nd, nd (controls 1 of 9).
The variant D25C S93I F98D showed nd, 5.15, 4.63 (mean 4.89; controls 5 of 9).
The variant N52Q S92Y V97H showed 2.60, 2.88, 2.56 (mean 2.68; controls 2 of 9).
The variant E23W N33E S89V showed 5.29, nd, 2.94 (mean 4.11; controls 0 of 9).
The variant A32N S89D F95R showed 2.76, 3.22, 3.06 (mean 3.02; controls 1 of 9).
The variant Y30W A32N K50N showed 2.44, 2.41, 2.13 (mean 2.33; controls 5 of 9).
The variant N33K G49K showed nd, nd, nd (controls 0 of 9).
The variant A32C S55L F95K showed nd, 3.72, 2.62 (mean 3.17; controls 1 of 9).
The variant L27H Y29E S93R showed 2.69, 2.22, 3.42 (mean 2.78; controls 5 of 9).
The variant E23M A32R F95N showed 3.57, nd, 3.51 (mean 3.54; controls 2 of 9).
The variant G24L S55H V97S showed 3.54, 5.10, nd (mean 4.32; controls 0 of 9).
The variant D25R L27I A32R showed nd, nd, nd (controls 1 of 9).
The variant D25R A32Q N33Q showed nd, 5.41, nd (controls 2 of 9).
The variant A32D R90W S93A showed nd, nd, nd (controls 0 of 9).
The variant E23Q N33A N51A showed 3.77, 3.54, 2.94 (mean 3.42; controls 5 of 9).
The variant G49S K50R G94F showed nd, 4.64, 3.99 (mean 4.31; controls 1 of 9).
The variant R28K N33F S88C showed 2.93, 3.06, 3.06 (mean 3.02; controls 2 of 9).
The variant R28K D91A G94L showed 5.53, nd, 3.86 (mean 4.70; controls 0 of 9).
The variant L27Y A32Q showed 3.65, 3.35, 3.27 (mean 3.42; controls 2 of 9).
The variant Y30F Y31W F95E showed nd, nd, nd (controls 1 of 9).
The variant E23M S26I P54F showed 3.50, 4.17, nd (mean 3.83; controls 5 of 9).
The variant A32M S93V showed nd, 3.18, 2.72 (mean 2.95; controls 3 of 9).
The variant D25R Y30M R53F showed 3.79, nd, nd (controls 3 of 9).
The variant E23G S92A F95N showed 1.86, 1.59, 1.17 (mean 1.54; controls 3 of 9).
The variant A32M N51A V97S showed nd, 4.02, 3.73 (mean 3.87; controls 2 of 9).